The values below come from patent EP2884284A1, “Dry diagnostic reagent” (priority 2013, dated 2015).

The nature of data set [1]: Moisture uptake, modified Ph. Eur. 5.11 hygroscopicity method. The class given is physicochemical. The settings on record: mass increase during 24h storage over saturated ammonium sulfate solution, 25°C, about 100 mg. The procedure:
It determines the mass increase (% (m/mo)) during a 24h storage period over a saturated ammonium sulfate solution.

A short description of data set [2]: Solubility, Ph. Eur. 5.11 procedure in TRIS buffer. To be noted: 100mg substance, TRIS buffer isotonic pH = 7.4, 25.0°C, visual after 1 min. mixing and 15 min. storage. From the text: Table 3: Categorization of solubility according to Ph. Eur. 7.4
A short description of data set [3]: Moisture uptake over saturated K2SO4 solution at about 100% relative humidity. To be noted: about 25°C, amorphous except for CaCl2.
Data set [4] in a line: Glass transition temperature Tg by differential scanning calorimetry. The class given is physicochemical. As to the method:
Hydranal® Coulomat AG Oven served as a reagent. About 10 mg of the substance was used for an expected residual moisture between 5 - 10%(m/m) and about 50 - 80 mg were used for an expected moisture content […]. […]
Primary drying was carried out at Tinlet = -30° C / 30mtorr for 15h followed by secondary drying at 40°C / 30mtorr for 6h with a heating rate between the two steps of 0.3 °C/min. The glass transition temperature as well as the residual moisture content were measured after freeze drying for the respective substance.

For data set [5] the following is noted: cited from earlier work.

Like-named read-outs stand apart in the source and are kept apart here.

As for Calcium lacto ascorbate [CLA], the “Ph. Eur. method Hygroscopicity” value in data set [1] is given as 30.51 %(m/mo. Also, the “Ph. Eur. method Solubility” value in data set [2] was “very soluble”. Further, the “Uptake rate during 3h storage at 99.9 % rel. humidity (sat. K2SO4 sol.)” value in data set [3] is 0.638 ratio compared to CaCl2.
With calcium ascorbate [reference compound], the “Uptake rate during 3h storage at 99.9 % rel. humidity (sat. K2SO4 sol.)” value in data set [3] is recorded as 0.449 ratio compared to CaCl2.
On to calcium ascorbate lactobionate [CALB], for which the “Ph. Eur. method Hygroscopicity” value in data set [1] is given as 23.63 %(m/mo. Moreover, the “Ph. Eur. method Solubility” value in data set [2] was “very soluble”. Further, the Tg amounted to 121.13 °C in data set [4] (CALB ratio 0, moisture content 0 %(m/m)); 72.34 °C in data set [4] (CALB ratio 0, moisture content 4.68 %(m/m)); 58.83 °C in data set [4] (CALB ratio 0, moisture content 6.93 %(m/m)); 42.97 °C in data set [4] (CALB ratio 0, moisture content 8.09 %(m/m)); 8.59 °C in data set [4] (CALB ratio 0, moisture content 14.18 %(m/m)); 128.97 °C in data set [4] (CALB ratio 23.54, moisture content 0 %(m/m)). For the same substance, the Tg in data set [4] (CALB ratio 23.54, moisture content 4.30 %(m/m)) was found to be 81.00 °C; in data set [4] (CALB ratio 23.54, moisture content 8.62 %(m/m)) it was 48.33 °C; in data set [4] (CALB ratio 23.54, moisture content 10.95 %(m/m)), 40.12 °C; in data set [4] (CALB ratio 64.23, moisture content 0 %(m/m)), 140.90 °C; in data set [4] (CALB ratio 64.23, moisture content 4.82 %(m/m)), 84.55 °C; in data set [4] (CALB ratio 64.23, moisture content 6.29 %(m/m)) it was 77.15 °C. In addition, the Tg was found to be 60.75 °C in data set [4] (CALB ratio 64.23, moisture content 8.32 %(m/m)); 32.61 °C in data set [4] (CALB ratio 64.23, moisture content 11.68 %(m/m)); 140.09 °C in data set [4] (CALB ratio %(m(CA)/m(CLB)) = 100, moisture content 0 %(m/m) (annealed)); 82.46 °C in data set [4] (CALB ratio %(m(CA)/m(CLB)) = 100, moisture content 5.10 %(m/m)); 64.81 °C in data set [4] (CALB ratio %(m(CA)/m(CLB)) = 100, moisture content 8.20 %(m/m)); 30.65 °C in data set [4] (CALB ratio %(m(CA)/m(CLB)) = 100, moisture content 13.87 %(m/m)). Moreover, the “Uptake rate during 3h storage at 99.9 % rel. humidity (sat. K2SO4 sol.)” value in data set [3] is on record as 0.629 ratio compared to CaCl2.
With “calcium gluconate [CG, reference compound]”, in data set [2], the “Ph. Eur. method Solubility” value is reported as “sparingly soluble***”. Moreover, the values for the solubility in water in data set [5] (background statement) and in data set [5] (stated in Example 1) were 35 mg/mL and 70 mM, respectively.
As to calcium lacto gluconate [CLG (2:1)], the “Ph. Eur. method Hygroscopicity” value in data set [1] was 20.44 %(m/mo. Besides, the “Ph. Eur. method Solubility” value in data set [2] is listed as “freely soluble”.
Regarding calcium lacto gluconate [CLG ME], the “Ph. Eur. method Hygroscopicity” value in data set [1] is given as 19.91 %(m/mo. Moreover, the “Ph. Eur. method Solubility” value in data set [2] is given as “very soluble”.
Turning to calcium lacto lactobionate [CLLB], in data set [2], the “Ph. Eur. method Solubility” value is recorded as “freely soluble”.
Regarding calcium lacto pantothenate [CLP], the “Ph. Eur. method Hygroscopicity” value in data set [1] is recorded as 27.20 %(m/mo. The “Ph. Eur. method Solubility” value in data set [2] is “freely soluble”. Also, the “Uptake rate during 3h storage at 99.9 % rel. humidity (sat. K2SO4 sol.)” value in data set [3] is recorded as 0.536 ratio compared to CaCl2.
As for “calcium lactobionate pantothenate [CLBP]”, in data set [1], the “Ph. Eur. method Hygroscopicity” value was 25.39 %(m/mo. Moreover, the “Ph. Eur. method Solubility” value in data set [2] is listed as “very soluble”. For the same substance, the “Uptake rate during 3h storage at 99.9 % rel. humidity (sat. K2SO4 sol.)” value in data set [3] is reported as 0.637 ratio compared to CaCl2.
